This is an account of results in ChEMBL document CHEMBL5576122, “Discovery of Novel Azaphenothiazine Derivatives to Suppress Endometrial Cancer by Targeting GRP75 to Impair Its Interaction with IP3R and Mitochondrial Ca2+ Homeostasis” (J Med Chem, 2024).

SMILES strings stand for the structures.

A short description of series [1]: Toxicity in BALB/c nude mouse xenografted with human KLE cells assessed as change in ALT level at 1 to 2 mg/kg, po administered every other day for 21 days. Particulars: in vivo, 504 h, dose 1-2 mg/kg, time 21 day. The class given is organism-based.
A short description of series [2]: Extrapyramidal side effect in mouse assessed as average fall off latency time at 50 mg/kg, ip by rotarod test. The class given is toxicity, organism-based. The conditions noted are these: in vivo.
Series [3] can be described thus: Toxicity in BALB/c nude mouse xenografted with human KLE cells assessed as change in urea level at 1 to 2 mg/kg, po administered every other day for 21 days. The conditions noted are these: in vivo, 504 h, dose 1-2 mg/kg, time 21 day. The class given is organism-based.
Series [4] in a line: Toxicity in BALB/c nude mouse xenografted with human KLE cells assessed as change in creatinine level at 1 to 2 mg/kg, po administered every other day for 21 days. The class given is organism-based. The conditions noted are these: in vivo, 504 h, dose 1-2 mg/kg, time 21 day.
Series [5] is described as follows: Toxicity in BALB/c nude mouse xenografted with human KLE cells assessed as spleen damage at 1 to 2 mg/kg, po administered every other day for 21 days bty H and E staining based assay. The class given is organism-based. Particulars: in vivo, 504 h, dose 1-2 mg/kg, time 21 day.
Series [6] is described as follows: Acute toxicity in ICR mouse assessed as change in liver at 100 mg/kg, ip measured after 14 days. It counts as organism-based. Particulars: in vivo, 336 h, time 14 day.
The nature of series [7]: Acute toxicity in ICR mouse assessed as change in body weight at 100 mg/kg, ip measured daily for 14 days. It counts as organism-based. The conditions noted are these: in vivo, 336 h, time 14 day.
The nature of series [8]: Acute toxicity in ICR mouse assessed as change in heart at 100 mg/kg, ip measured after 14 days. The conditions noted are these: in vivo, 336 h, time 14 day. The class given is organism-based.
Series [9] is described as follows: Acute toxicity in ICR mouse assessed as change in spleen at 100 mg/kg, ip measured after 14 days. The class given is organism-based. Particulars: in vivo, 336 h, time 14 day.
Series [10] can be described thus: Extrapyramidal side effect in mouse assessed as average fall off latency time at 100 mg/kg, ip by rotarod test. It counts as toxicity, organism-based. The conditions noted are these: in vivo.
Series [11] in a line: Toxicity in BALB/c nude mouse xenografted with human KLE cells assessed as change in AST level at 1 to 2 mg/kg, po administered every other day for 21 days. It counts as organism-based. The conditions noted are these: in vivo, 504 h, dose 1-2 mg/kg, time 21 day.
The nature of series [12]: Toxicity in BALB/c nude mouse xenografted with human KLE cells assessed as reduction in body weight at 1 to 2 mg/kg, po administered every other day for 21 days. The class given is organism-based. Particulars: in vivo, 504 h, dose 1-2 mg/kg, time 21 day.
Series [13] can be described thus: Acute toxicity in ICR mouse assessed as change in kidney at 100 mg/kg, ip measured after 14 days. The class given is organism-based. The conditions noted are these: in vivo, 336 h, time 14 day.
Series [14] is described as follows: Toxicity in BALB/c nude mouse xenografted with human KLE cells assessed as liver damage at 1 to 2 mg/kg, po administered every other day for 21 days bty H and E staining based assay. The class given is organism-based. Particulars: in vivo, 504 h, dose 1-2 mg/kg, time 21 day.
A short description of series [15]: Toxicity in BALB/c nude mouse xenografted with human KLE cells assessed as heart damage at 1 to 2 mg/kg, po administered every other day for 21 days bty H and E staining based assay. It counts as organism-based. The conditions noted are these: in vivo, 504 h, dose 1-2 mg/kg, time 21 day.
Series [16] in a line: Toxicity in BALB/c nude mouse xenografted with human KLE cells assessed as change in creatinine kinase level at 1 to 2 mg/kg, po administered every other day for 21 days. Particulars: in vivo, 504 h, dose 1-2 mg/kg, time 21 day. The class given is organism-based.
The nature of series [17]: Toxicity in BALB/c nude mouse xenografted with human KLE cells assessed as kidney damage at 1 to 2 mg/kg, po administered every other day for 21 days bty H and E staining based assay. It counts as organism-based. The conditions noted are these: in vivo, 504 h, dose 1-2 mg/kg, time 21 day.
Series [18] can be described thus: Extrapyramidal side effect in mouse assessed as effect on motor ability at 50 to 100 mg/kg, ip by rotarod test. It counts as toxicity, organism-based. The conditions noted are these: in vivo, dose 50-100 mg/kg.
A short description of series [19]: Acute toxicity in ICR mouse assessed as change in lungs at 100 mg/kg, ip measured after 14 days. The class given is organism-based. Particulars: in vivo, 336 h, time 14 day.

Take `COc1ccc2c(c1)N(CCCCCN1CCC3(CCN(C)CC3)CC1)c1ncccc1S2`: the Activity result in [1], in series [3], in [4], in series [5], in [6] and in series [7] was “Non-Toxic” throughout. In addition, the Activity result in series [8], in series [9], in [11], in series [12], in series [13] and in [14] was “Non-Toxic” each time. Besides, the Activity entry in series [15], in [16], in [17], in series [18] and in [19] was “Non-Toxic” throughout. Besides, the figures for the Time in series [2] and in series [10] were 255 s and 243 s, respectively.
